Assay [1] has as its target T1, AMAN-2 (Golgi α-mannosidase II) (Caenorhabditis elegans, UniProt Q2PJ74). As to conditions: estimated from the reported 45% inhibition at 10 nM; ref Paschinger et al. [36]; cited from earlier work.
Assay [2] concerns the target T1, AMAN-2 (Golgi α-mannosidase II). Kind of assay: α-mannosidase inhibition assay with pNP-Man substrate, AMAN-2. The format is biochemical. The settings on record: ratio of Ki values. From the text: The enzymes screened included two Golgi types (GMIIb and AMAN-2) and two lysosomal types (LManII and JBMan) (Table 1).
Recombinant soluble forms of Drosophila melanogaster Golgi (GMIIb) and lysosomal (LManII) α-mannosidases as well as Caenorhabditis elegans Golgi α-mannosidase AMAN-2 were produced in Pichia pastoris and enriched by ammonium sulfate precipitation or nickel chelation chromatography as previously described. The α-mannosidase from Canavalia ensiformis (JBMan) was purchased from Sigma. The mannosidase activity of these enzyme preparations were measured using p-nitrophenyl α -D-mannopyranoside ( pNP-Man; Sigma; 100 mM stock in dimethylsulfoxide) as a substrate at 2 mM final concentration in 50 mM acetate buffer of the relevant previously defined optimal pH, GMIIb and AMAN -2 at pH 6.0, LManII at pH 5.2 , and JBMan at pH 5.0) and 0.5 μL of the enzyme (0.05 µg of protein for JBMan), in a total volume of 50 μL for 1–2 h at 37 °C. GMIIb was assayed in the presence of 0.5 mM CoCl2.
The lyophilized derivatives used in the assay were dissolved in DMSO to the final concentration 50 mM and further diluted to a desired concentration in water. […] The reactions were terminated with two volumes (0.1 mL) of 0.5 M sodium carbonate and the production of p-nitrophenol was measured at 405 nm using a multimode reader Mithras LB943 (Berthold Technologies). […]

Protein sequences, listed by entry. Tags and fused reporters are not part of them.
UniProt Q2PJ74, entry or part of it: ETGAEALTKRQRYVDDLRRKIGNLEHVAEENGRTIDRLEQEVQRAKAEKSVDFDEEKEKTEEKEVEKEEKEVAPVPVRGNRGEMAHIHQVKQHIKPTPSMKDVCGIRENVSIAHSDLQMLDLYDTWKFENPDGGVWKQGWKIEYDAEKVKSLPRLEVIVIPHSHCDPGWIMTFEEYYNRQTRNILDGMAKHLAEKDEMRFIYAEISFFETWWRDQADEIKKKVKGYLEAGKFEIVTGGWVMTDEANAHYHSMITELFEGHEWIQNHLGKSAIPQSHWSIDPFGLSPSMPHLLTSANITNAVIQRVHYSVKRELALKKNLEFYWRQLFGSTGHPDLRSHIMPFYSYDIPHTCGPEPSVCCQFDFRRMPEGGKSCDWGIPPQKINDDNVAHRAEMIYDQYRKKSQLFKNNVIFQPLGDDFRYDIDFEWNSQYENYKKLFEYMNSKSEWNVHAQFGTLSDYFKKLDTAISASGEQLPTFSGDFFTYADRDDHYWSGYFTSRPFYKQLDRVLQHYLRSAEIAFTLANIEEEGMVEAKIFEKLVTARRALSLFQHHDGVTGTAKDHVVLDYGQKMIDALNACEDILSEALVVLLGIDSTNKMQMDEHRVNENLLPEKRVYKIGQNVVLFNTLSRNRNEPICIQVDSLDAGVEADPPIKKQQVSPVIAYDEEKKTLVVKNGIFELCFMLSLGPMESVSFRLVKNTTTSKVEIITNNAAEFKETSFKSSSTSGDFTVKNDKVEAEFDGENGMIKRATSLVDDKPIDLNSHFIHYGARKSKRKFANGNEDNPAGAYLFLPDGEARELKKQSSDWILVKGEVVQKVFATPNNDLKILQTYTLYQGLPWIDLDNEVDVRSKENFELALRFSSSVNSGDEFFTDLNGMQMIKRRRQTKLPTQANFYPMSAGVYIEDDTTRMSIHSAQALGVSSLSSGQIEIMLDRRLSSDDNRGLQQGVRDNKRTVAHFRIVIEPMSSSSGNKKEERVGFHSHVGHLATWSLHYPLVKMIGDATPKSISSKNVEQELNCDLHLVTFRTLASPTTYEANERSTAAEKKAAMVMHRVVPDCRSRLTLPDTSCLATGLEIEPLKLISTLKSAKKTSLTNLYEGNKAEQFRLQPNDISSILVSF
UniProt Q9VKV1, entry or part of it: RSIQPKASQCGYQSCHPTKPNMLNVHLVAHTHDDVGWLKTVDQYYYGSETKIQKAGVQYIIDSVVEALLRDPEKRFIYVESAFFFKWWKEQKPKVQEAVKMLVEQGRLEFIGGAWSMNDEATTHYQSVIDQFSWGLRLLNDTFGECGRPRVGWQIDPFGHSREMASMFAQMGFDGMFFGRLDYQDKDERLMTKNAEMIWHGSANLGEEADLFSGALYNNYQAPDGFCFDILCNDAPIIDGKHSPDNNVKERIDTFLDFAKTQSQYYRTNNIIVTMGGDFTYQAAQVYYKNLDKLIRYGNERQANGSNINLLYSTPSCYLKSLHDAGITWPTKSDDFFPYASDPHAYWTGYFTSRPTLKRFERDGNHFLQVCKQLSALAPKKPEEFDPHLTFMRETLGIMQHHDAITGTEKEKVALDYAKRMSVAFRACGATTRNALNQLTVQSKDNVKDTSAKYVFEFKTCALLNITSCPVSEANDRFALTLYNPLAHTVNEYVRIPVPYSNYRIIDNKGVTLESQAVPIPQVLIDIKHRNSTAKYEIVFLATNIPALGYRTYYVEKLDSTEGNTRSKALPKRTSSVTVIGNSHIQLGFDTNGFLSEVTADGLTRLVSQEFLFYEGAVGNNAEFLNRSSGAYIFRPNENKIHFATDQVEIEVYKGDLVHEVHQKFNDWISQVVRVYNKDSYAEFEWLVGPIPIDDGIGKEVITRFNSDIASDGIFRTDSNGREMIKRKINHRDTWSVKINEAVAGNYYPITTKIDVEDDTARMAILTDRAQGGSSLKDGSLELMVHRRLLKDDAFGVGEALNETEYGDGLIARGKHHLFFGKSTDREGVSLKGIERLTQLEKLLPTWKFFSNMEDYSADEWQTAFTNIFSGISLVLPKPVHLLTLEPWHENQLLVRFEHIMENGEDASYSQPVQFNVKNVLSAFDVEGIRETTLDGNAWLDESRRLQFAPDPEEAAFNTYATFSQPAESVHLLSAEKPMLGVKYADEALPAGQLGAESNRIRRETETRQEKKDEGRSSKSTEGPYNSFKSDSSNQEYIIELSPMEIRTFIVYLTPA
UniProt Q9VF33, entry or part of it: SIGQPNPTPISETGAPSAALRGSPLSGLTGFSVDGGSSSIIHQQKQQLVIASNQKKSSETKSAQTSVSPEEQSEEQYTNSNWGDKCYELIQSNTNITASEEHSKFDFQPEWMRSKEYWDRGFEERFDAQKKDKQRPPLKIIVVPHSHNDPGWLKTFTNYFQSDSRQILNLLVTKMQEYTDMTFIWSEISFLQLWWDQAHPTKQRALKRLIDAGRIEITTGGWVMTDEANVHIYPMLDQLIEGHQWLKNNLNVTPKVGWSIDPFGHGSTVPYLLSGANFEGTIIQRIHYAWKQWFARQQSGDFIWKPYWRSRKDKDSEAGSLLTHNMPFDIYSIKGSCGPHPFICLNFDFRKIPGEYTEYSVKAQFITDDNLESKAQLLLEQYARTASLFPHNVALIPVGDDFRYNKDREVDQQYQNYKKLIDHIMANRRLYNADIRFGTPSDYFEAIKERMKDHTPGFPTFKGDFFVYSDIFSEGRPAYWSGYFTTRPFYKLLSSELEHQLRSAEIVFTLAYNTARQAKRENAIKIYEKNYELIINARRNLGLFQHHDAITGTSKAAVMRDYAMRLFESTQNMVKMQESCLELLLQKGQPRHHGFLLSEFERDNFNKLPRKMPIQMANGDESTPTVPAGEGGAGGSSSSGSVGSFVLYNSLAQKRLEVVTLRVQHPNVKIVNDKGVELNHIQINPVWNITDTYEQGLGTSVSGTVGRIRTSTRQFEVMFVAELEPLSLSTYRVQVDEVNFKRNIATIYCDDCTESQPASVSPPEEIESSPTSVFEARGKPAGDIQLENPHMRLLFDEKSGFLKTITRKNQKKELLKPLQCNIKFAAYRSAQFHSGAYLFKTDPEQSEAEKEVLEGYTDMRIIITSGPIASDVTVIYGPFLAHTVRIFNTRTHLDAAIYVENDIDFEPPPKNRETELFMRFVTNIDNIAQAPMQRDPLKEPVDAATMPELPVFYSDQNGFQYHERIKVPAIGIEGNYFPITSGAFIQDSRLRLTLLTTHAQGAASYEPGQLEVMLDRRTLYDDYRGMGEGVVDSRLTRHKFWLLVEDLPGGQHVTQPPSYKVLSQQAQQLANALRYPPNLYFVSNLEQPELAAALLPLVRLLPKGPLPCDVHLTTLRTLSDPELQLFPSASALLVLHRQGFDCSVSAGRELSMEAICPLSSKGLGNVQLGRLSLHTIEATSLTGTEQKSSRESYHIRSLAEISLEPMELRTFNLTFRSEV

Assay [3] deals with T2, JBMan (Jack bean α-mannosidase) (Canavalia ensiformis, UniProt C0HJB3).
T2 construct: purchased Sigma
T2 sequence (C0HJB3 1-981): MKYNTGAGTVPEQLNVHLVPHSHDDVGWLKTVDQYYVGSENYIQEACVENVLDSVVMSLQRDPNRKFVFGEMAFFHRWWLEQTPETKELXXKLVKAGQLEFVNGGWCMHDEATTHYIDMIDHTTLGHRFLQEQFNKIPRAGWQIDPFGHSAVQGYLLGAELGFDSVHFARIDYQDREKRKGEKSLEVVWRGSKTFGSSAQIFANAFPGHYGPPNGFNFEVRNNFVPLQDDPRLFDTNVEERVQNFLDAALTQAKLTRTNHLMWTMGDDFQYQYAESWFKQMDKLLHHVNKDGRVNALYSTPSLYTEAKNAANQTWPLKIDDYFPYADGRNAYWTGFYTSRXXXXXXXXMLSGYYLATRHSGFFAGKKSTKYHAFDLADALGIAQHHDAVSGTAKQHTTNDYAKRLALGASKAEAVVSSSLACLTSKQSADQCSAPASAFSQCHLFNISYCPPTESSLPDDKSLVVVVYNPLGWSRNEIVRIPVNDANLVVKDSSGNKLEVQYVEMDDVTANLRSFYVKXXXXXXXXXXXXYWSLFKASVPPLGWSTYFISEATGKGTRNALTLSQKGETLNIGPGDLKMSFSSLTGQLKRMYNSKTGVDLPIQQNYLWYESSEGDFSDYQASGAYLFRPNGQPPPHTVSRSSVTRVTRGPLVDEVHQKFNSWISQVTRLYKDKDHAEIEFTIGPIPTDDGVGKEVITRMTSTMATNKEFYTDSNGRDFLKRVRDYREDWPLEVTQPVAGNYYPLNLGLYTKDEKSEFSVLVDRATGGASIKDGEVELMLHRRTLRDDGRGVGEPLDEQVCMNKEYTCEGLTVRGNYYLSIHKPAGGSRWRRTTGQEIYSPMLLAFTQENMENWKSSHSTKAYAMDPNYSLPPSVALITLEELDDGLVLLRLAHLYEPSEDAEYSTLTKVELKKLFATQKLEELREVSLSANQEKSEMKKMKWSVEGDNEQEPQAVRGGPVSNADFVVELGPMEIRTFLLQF
As to conditions: ref Poláková et al. [38]; cited from earlier work.

Assay [4] has as its target LManII (lysosomal α-mannosidase) (Drosophila melanogaster, UniProt Q9VKV1). The settings on record: ref Nemčovičová et al. [35]; cited from earlier work.
The target in assay [5] is GMIIb (Golgi α-mannosidase) (Drosophila melanogaster, UniProt Q9VF33). As to conditions: ref Nemčovičová et al. [35]; cited from earlier work.

pIC50, pKi: −log10 of the molar value.

As a reminder, the pIC50 is −log10 of the IC50, conventionally taken in molar units. Broadly, the pKi is the negative decadic logarithm of the Ki, by convention in mol/L. For `O[C@H]1[C@H]2[C@H](O)CCCN2C[C@H]1O` [swainsonine, (−)-swainsonine], the pIC50 in assay [1] was 8.00; in assay [3] it was 6.70; in assay [4], 7.92. Further, the “Selectivity index, SI [Ki (JBMan)/Ki (AMAN-2)]” value in assay [2] is given as 20. Further, the negative logarithm of the Ki (pKi) was 8.15 in assay [4] and 8.57 in assay [5].

The record behind these values is paper PMC10012049, “Synthesis, α-mannosidase inhibition studies and molecular modeling of 1,4-imino-ᴅ-lyxitols and their C-5-altered N-arylalkyl derivatives” (Beilstein Journal of Organic Chemistry, 2023).
